Results taken from ChEMBL document CHEMBL4406869, “Benzo[b]thiophene-thiazoles as potent anti-Toxoplasma gondii agents: Design, synthesis, tyrosinase/tyrosine hydroxylase inhibitors, molecular docking study, and antioxidant activity” (Eur J Med Chem, 2019).

How the values were obtained:
[1] = Potency index, ratio of butylated hydroxytoluene IC50 to test compound IC50 for antioxidant activity assessed as DPPH radical scavenging activity; assay type: functional
[2] = substrate: Brc1ccc(-c2csc(N/N=C/c3cc4ccccc4s3)n2)cc1; settings: Agaricus bisporus; 0.2 mM
[3] = substrate: Cc1ccc(-c2csc(N/N=C/c3cc4ccccc4s3)n2)cc1; settings: Agaricus bisporus; 0.2 mM
[4] = substrate: Clc1ccc(-c2csc(N/N=C/c3cc4ccccc4s3)n2)cc1; settings: Agaricus bisporus; 0.2 mM
[5] = substrate: Fc1ccc(-c2csc(N/N=C/c3cc4ccccc4s3)n2)cc1; settings: Agaricus bisporus; 0.2 mM
[6] = substrate: C(=N/Nc1nc(C23CC4CC(CC(C4)C2)C3)cs1)\c1cc2ccccc2s1; settings: Agaricus bisporus; 0.2 mM
[7] = substrate: Ic1ccc(-c2csc(N/N=C/c3cc4ccccc4s3)n2)cc1; settings: Agaricus bisporus; 0.2 mM
[8] = substrate: Brc1ccc(-c2csc(N/N=C/c3cc4ccccc4s3)n2)cc1; settings: Agaricus bisporus; 0.2 mM; remark: listed apart in the source
[9] = substrate: Cc1ccc(-c2csc(N/N=C/c3cc4ccccc4s3)n2)cc1; settings: Agaricus bisporus; 0.2 mM; remark: listed apart in the source
[10] = substrate: Clc1ccc(-c2csc(N/N=C/c3cc4ccccc4s3)n2)cc1; settings: Agaricus bisporus; 0.2 mM; remark: listed apart in the source
[11] = substrate: Fc1ccc(-c2csc(N/N=C/c3cc4ccccc4s3)n2)cc1; settings: Agaricus bisporus; 0.2 mM; remark: listed apart in the source

Molecule	Ratio IC50 [1]	Vmax [2]	Vmax [3]	Vmax [4]	Vmax [5]	Vmax [6]	Vmax [7]	Km [8]	Km [9]	Km [10]	Km [11]
C(=N\Nc1nc(C23CC4CC(CC(C4)C2)C3)cs1)/c1cc2ccccc2s1	10										
Tyrosinase (Agaricus bisporus), O42713 (protein) MSLIATVGPTGGVKNRLNIVDFVKNEKFFTLYVRSLELLQAKEQHDYSSFFQLAGIHGLPFTEWAKERPSMNLYKAGYCTHGQVLFPTWHRTYLSVLEQILQGAAIEVAKKFTSNQTDWVQAAQDLRQPYWDWGFELMPPDEVIKNEEVNITNYDGKKISVKNPILRYHFHPIDPSFKPYGDFATWRTTVRNPDRNRREDIPGLIKKMRLEEGQIREKTYNMLKFNDAWERFSNHGISDDQHANSLESVHDDIHVMVGYGKIEGHMDHPFFAAFDPIFWLHHTNVDRLLSLWKAINPDVWVTSGRNRDGTMGIAPNAQINSETPLEPFYQSGDKVWTSASLADTARLGYSYPDFDKLVGGTKELIRDAIDDLIDERYGSKPSSGARNTAFDLLADFKGITKEHKEDLKMYDWTIHVAFKKFELKESFSLLFYFASDGGDYDQENCFVGSINAFRGTAPETCANCQDNENLIQEGFIHLNHYLARDLESFEPQDVHKFLKEKGLSYKLYSRGDKPLTSLSVKIEGRPLHLPPGEHRPKYDHTQARVVFDDVAVHVIN		0.154 abs/min	0.12 abs/min	0.1 abs/min	0.302 abs/min	-0.0502 abs/min	-0.0764 abs/min	1050 µM	703 µM	619 µM	2450 µM
